For 1 compound, microsomal CLint results are on record in patent US20160168185A1 (BAYLOR COLLEGE OF MEDICINE, priority 2013, published 2016).

This data set in a line: in vitro. The following applies: human, pooled human liver microsomes. A general note: Liver microsomes are a subcellular fraction often used to study metabolism.

A word on the microsomal CLint: it is the rate of metabolic loss divided by the concentration. A low value points to greater metabolic stability. In turn, `CC(C)N(CCCNC(=O)Nc1ccc(C(C)(C)C)cc1)C[C@H]1O[C@@H](n2cnc3c(N)ncnc32)[C@H](O)[C@@H]1O` [SYC-522] registered an intrinsic clearance (microsomal CLint) at 1.98 µM of 24 µL/min/mg.
